System: N=C(N)NCCC[C@H](N)C(=O)O
Assay: cells, lysate or membranes named
Conditions: other: crude cell extract, E. coli expressed iNOS; 37.0 °C

human iNOS (Homo sapiens)
Km: 8 µM

— patent publication US5744340A, “Expression of human inducible nitric oxide synthase” (Schering Corporation, priority 1995, dated 1998)
